The values that follow come from ChEMBL document CHEMBL4130633, “Exploration of Benzothiazole Rhodacyanines as Allosteric Inhibitors of Protein-Protein Interactions with Heat Shock Protein 70 (Hsp70)” (J Med Chem, 2018).

Each structure is given as a SMILES string.

For test [1], the species on record is Homo sapiens. Description: Selectivity index, ratio of Kd for human HSC70 Y149A mutant to Kd for human wild type HSC70.
Test [2] is filed under the species Homo sapiens. The test is described as follows: Selectivity index, ratio of Kd for human HSC70 H227A mutant to Kd for human wild type HSC70.
The species named for test [3] is Homo sapiens. Description: Selectivity index, ratio of Kd for human HSC70 T222A mutant to Kd for human wild type HSC70.
Test [4] is filed under the species Homo sapiens. Description: Selectivity index, ratio of Kd for human HSC70 Y149W mutant to Kd for human wild type HSC70.
The species entered for test [5] is Homo sapiens. Description: Selectivity index, ratio of Kd for human HSC70 L228A mutant to Kd for human wild type HSC70.

Consider `CCn1c(=O)/c(=C2\Sc3cc(Br)ccc3N2C)s/c1=C\c1scc[n+]1Cc1ccc(C(F)(F)F)o1.[Cl-]`, for which the Selectivity Index in the test listed under Homo sapiens [1] was 3.6; in the test filed under Homo sapiens [2], 36.8; in the test filed under Homo sapiens [3], 12.5; in the test filed under Homo sapiens [4], 8.4; in the test filed under Homo sapiens [5] it was 20.9.
